# Data published in patent US4916223A, “Substituted hexahydroarylquinolizines” (Merck & Co., Inc., priority 1989, dated 1990).
# Assays:
# central α2-adrenoceptors = assay: In vivo antagonism of clonidine-induced mydriasis; design: species or system rat (Sprague-Dawley); settings: for Antagonism of Clonidine Induced Mydriasis (ED2X): anesthetized rats, pretreated 5 minutes before i.v. clonidine, dose causing doubling of clonidine ED50, N=4/group
# Method: Administration of clonidine to rat produces mydriasis by an α2 -adrenergic mechanism in the central nervous system as reported by Koss et al., Naunyl-Schmiedeberg's Arch. […] Ophthal. […] Antagonism of the mydriatic action of clonidine was used as an in vivo test to examine the ability of the compounds to penetrate the central nervous system and antagonize α2 -adrenoceptors in the rat.
# Adult male Sprague-Dawley rats (250-450 g) were anesthetized with chloral hydrate (120-160 mg/kg i.p.), and a femoral vein was cannulated for drug administration. Body temperature was maintained at 37° C.±0.5. The eye was illuminated using a light with green filters to provide added contrast to aid in visualization of the iris. Pupil diameter was measured using a dissecting microscope containing an ocular micrometer with a resolution of 0.1 mm.
# Five minutes was allowed to elapse between successive doses of clonidine, and pupil diameter was determined immediately prior to the injection of the next dose of clonidine. The dose of clonidine required to cause 50% of the maximum increase in diameter of the pupil was determined for each rat, using logarithmic linear regression analysis. […] The potency of antagonists was expressed as ED2X values, i.e. the calculated dose of antagonist required to cause a doubling in the ED50 value for clonidine.
# [1] = target: T1, peripheral α2-adrenoceptors (Rattus norvegicus, UniProt P22909); assay: Peripheral versus central α2-adrenoceptor selectivity, vas deferens compared with mydriasis data; settings: relative to yohimbine
# T1 construct: isolated, field-stimulated rat vas deferens is utilized as an in vitro model; from tissue; host or cells: rat vas deferens (isolated, field-stimulated)
# T1 sequence (P22909 1-465): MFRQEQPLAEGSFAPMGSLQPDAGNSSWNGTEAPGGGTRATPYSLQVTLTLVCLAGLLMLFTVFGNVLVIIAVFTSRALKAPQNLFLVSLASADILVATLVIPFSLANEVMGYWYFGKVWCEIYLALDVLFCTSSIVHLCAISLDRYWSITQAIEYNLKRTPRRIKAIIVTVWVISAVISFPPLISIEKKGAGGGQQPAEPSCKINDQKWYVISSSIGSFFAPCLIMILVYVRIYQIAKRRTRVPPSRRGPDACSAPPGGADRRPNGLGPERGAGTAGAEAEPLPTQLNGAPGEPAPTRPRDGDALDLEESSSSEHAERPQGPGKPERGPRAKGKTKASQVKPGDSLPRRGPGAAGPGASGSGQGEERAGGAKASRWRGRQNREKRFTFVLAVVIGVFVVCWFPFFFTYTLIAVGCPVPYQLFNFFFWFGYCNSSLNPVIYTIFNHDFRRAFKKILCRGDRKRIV
# [2] = target: T1, peripheral α2-adrenoceptors; assay: In vitro field-stimulated rat vas deferens test: antagonism of clonidine (Schild analysis, pA2); format: cell-based
# Description: In the test, isolated, field-stimulated rat vas deferens is utilized as an in vitro model to determine the potency and selectivity of compounds toward the various α-adrenoceptor subtypes. Selective α2 -adrenoceptor agonists such as clonidine reduce the magnitude of neurogenic contractions in the peripheral smooth muscle by reducing the stimulated release of norepinephine through the activation of presynaptic α2 -adrenoceptors on the noradrenergic nerve terminals.
# The vas deferens from rats weighing 250-350 grams were freed of connective and fatty tissue and suspended between two platinum electrodes in an organ bath under 0.5 gram tension. The organ bath contained Tyrode's solution which was bubbled with 5% CO2 and 95% O2 and stimulated with square wave pulses at 0.1 Hz, 0.3 msec in duration and supramaximal voltage (30-50 V). Contractile responses were recorded. α2 -Agonist drug (clonidine) was added cumulatively to the bath and EC50 values determined by regression analysis. […] Computation of the pA2 value was performed using the formula: pA2 =pAx +log (x-1), where pAx is the negative logarithm of the molar concentration of antagonist and x is the dose ratio of EC50 values for the agonist before and after addition of the antagonist.
more selective for the periphery than yohimbine [1],"Kb ([2]; isolated field-stimulated rat vas deferens, agonist clonidine, antagonist at least 20 minutes contact) [nM]","higher affinity for α2-adrenoceptors than yohimbine ([2]; vas deferens data, relative to yohimbine)",Compound,Antagonism of Clonidine Induced Mydriasis (ED2X) (central α2-adrenoceptors) [mg/kg i.v.],less potent in eliciting a response mediated by central α2-adrenoceptors (mydriasis data) (central α2-adrenoceptors; relative to yohimbine) [fold]
about 900 times,3.02,seven,"CS(=O)(=O)NCCN1C(=O)NC[C@]12CCN1CCc3c(oc4ccccc34)[C@@H]1C2 [Arylquinolizine Compound A, (2R,12bS)-3'-(2-methanesulfonamidoethyl)-spiro-[1,3,4,6,7,12b-hexahydrobenzo[b]furo[2,3-a]quinolizin]-2,4'-imidazolidin-2'-one]",18.0,132
–,–,–,"COC(=O)[C@@H]1[C@H]2C[C@H]3c4[nH]c5ccccc5c4CCN3C[C@@H]2CC[C@@H]1O [Yohimbine, reference compound]",0.136,–
